These are literature values, as cited in US8614247B2, “Methods for preventing, attenuating or treating pulmonary hypertension using a serotonin transporter inhibitor, and pharmaceutical compositions for the treatment thereof” (Institut National de la Sante et de la Recherche Medicale, priority 2003, dated 2013).

Sequences of proteins named here, by UniProt entry; tags and fusion partners are left off.
UniProt P31652, whole entry: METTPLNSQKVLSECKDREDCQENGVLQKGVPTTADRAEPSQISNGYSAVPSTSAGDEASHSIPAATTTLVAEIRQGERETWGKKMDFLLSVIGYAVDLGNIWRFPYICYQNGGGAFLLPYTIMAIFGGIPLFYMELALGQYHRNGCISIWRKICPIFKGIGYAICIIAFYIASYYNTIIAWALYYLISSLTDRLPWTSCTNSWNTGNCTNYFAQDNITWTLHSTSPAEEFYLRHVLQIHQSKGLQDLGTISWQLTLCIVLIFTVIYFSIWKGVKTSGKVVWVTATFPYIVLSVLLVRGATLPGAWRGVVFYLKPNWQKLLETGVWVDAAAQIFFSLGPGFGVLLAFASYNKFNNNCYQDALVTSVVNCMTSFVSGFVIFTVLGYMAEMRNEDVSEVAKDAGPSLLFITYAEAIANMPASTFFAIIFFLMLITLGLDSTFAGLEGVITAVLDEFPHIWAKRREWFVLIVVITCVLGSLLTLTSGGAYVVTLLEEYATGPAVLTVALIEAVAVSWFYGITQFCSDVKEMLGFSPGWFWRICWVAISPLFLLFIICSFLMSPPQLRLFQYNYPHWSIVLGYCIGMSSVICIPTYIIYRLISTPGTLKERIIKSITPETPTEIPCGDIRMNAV

This data set has as its target 5-HTT (Rattus norvegicus, UniProt P31652). The conditions noted are these: cited from earlier work.

Turning to `CCNC(C)Cc1cccc(C(F)(F)F)c1` (stereo not shown) [fenfluramine], the 5-HTT substrate is reported as 5-HTT substrates.
